One assay relates to HUVEC. Nature of the assay: EC50 determination, cell proliferation by IncuCyte live-cell imaging. The assay is classed as cell-based. To be noted: Homo sapiens, 48 h, read-out: EC50 (suppression of proliferation).
In a further assay the test system is A431 cells. Nature of the assay: cells. To be noted: Homo sapiens, A-431, 48 h, read-out: EC50 (suppression of proliferation).
The test system of the next assay is A549 cells. The assay can be described thus: cells. The settings on record: Homo sapiens, A549, 48 h, read-out: EC50 (suppression of proliferation).
The next assay has as its system LNCaP cells. The assay can be described thus: EC50 determination, cell proliferation by IncuCyte live-cell imaging. Format: cell-based. The settings on record: Homo sapiens, 48 h, read-out: EC50 (suppression of proliferation).

Turning to `COc1cccc2c1-c1c(c3c(n1C(C)C)CC(C)CC3=O)C2=O` (stereo not shown) [5a‐2, 5-Isopropyl-4-methoxy-7-methyl-5,6,7,8-tetrahydro-indeno[1,2-b]indole-9,10-dione], the EC50 in the assay on HUVEC came to 30.8 µM; in the assay on A431 cells it was 21.2 µM; with A549 cells, 39.8 µM; in the assay with LNCaP cells, 14.2 µM.

Source of the values: publication PMC8804612 (2021).
